Data published in ChEMBL document CHEMBL6103615, “Thymidylate Kinase-Targeted Antimicrobial Peptides via Phage Display: A Novel Strategy against Gram-Negative Bacteria” (J Med Chem, 2025).
≈ marks a conversion by molar mass, not a printed value.

Tests used:
[1] = system: Staphylococcus epidermidis; assay: Antibacterial activity against Staphylococcus epidermidis 12228 incubated for 12 to 18 hrs by microbroth dilution method; format: functional; conditions: time 12-18 hrs
Staphylococcus aureus [2] = assay: Antibacterial activity against methicillin-resistant Staphylococcus aureus 43300 incubated for 12 to 18 hrs by microbroth dilution method; format: functional; conditions: time 12-18 hrs
Staphylococcus aureus [3] = assay: Antibacterial activity against Staphylococcus aureus 25923 incubated for 12 to 18 hrs by microbroth dilution method; format: functional; conditions: time 12-18 hrs
Staphylococcus aureus [4] = assay: Antibacterial activity against Staphylococcus aureus 29213 incubated for 12 to 18 hrs by microbroth dilution method; format: functional; conditions: time 12-18 hrs
Pseudomonas aeruginosa [5] = assay: Antibacterial activity against Pseudomonas aeruginosa 27853 incubated for 12 to 18 hrs by microbroth dilution method; format: functional; conditions: time 12-18 hrs
Pseudomonas aeruginosa [6] = assay: Antibacterial activity against Pseudomonas aeruginosa PAO1 incubated for 12 to 18 hrs by microbroth dilution method; format: functional; conditions: time 12-18 hrs
Salmonella typhimurium = assay: Antibacterial activity against Salmonella typhimurium 7731 incubated for 12 to 18 hrs by microbroth dilution method; format: functional, Salmonella enterica subsp. enterica serovar Typhimurium; conditions: Salmonella enterica, time 12-18 hrs
Escherichia coli [7] = assay: Antibacterial activity against Escherichia coli 1515 incubated for 12 to 18 hrs by microbroth dilution method; format: functional; conditions: time 12-18 hrs
Escherichia coli [8] = assay: Antibacterial activity against Escherichia coli 078 incubated for 12 to 18 hrs by microbroth dilution method; format: functional; conditions: time 12-18 hrs
Escherichia coli [9] = assay: Antibacterial activity against Escherichia coli K99 incubated for 12 to 18 hrs by microbroth dilution method; format: functional; conditions: time 12-18 hrs
Escherichia coli [10] = assay: Antibacterial activity against Escherichia coli K88 incubated for 12 to 18 hrs by microbroth dilution method; format: functional; conditions: time 12-18 hrs

CC[C@H](C)[C@H](NC(=O)CN)C(=O)NCC(=O)N[C@@H](C)C(=O)N[C@H](C(=O)N[C@@H](CC(C)C)C(=O)N[C@@H](CCCCN)C(=O)N[C@H](C(=O)N[C@@H](CC(C)C)C(=O)N[C@H](C(=O)N[C@H](C(=O)NCC(=O)N[C@@H](CC(C)C)C(=O)N1CCC[C@H]1C(=O)N[C@@H](C)C(=O)N[C@@H](CC(C)C)C(=O)N[C@H](C(=O)N[C@@H](CO)C(=O)N[C@@H](Cc1c[nH]c2ccccc12)C(=O)N[C@H](C(=O)N[C@@H](CCCCN)C(=O)N[C@@H](CCCNC(=N)N)C(=O)N[C@@H](CCCCN)C(=O)N[C@@H](CCCNC(=N)N)C(=O)N[C@@H](CCC(N)=O)C(=O)N[C@@H](CCC(N)=O)C(N)=O)[C@@H](C)CC)[C@@H](C)CC)[C@@H](C)O)[C@@H](C)O)C(C)C)C(C)C [MELITTIN]
MIC [1]: 2 µM (≈ 5.69 µg/mL) | MIC (Staphylococcus aureus [2]): 2 µM (≈ 5.69 µg/mL) | MIC (Staphylococcus aureus [3]): 4 µM (≈ 11.4 µg/mL) | MIC (Staphylococcus aureus [4]): 4 µM (≈ 11.4 µg/mL) | MIC (Pseudomonas aeruginosa [5]): 16 µM (≈ 45.5 µg/mL) | MIC (Pseudomonas aeruginosa [6]): 4 µM (≈ 11.4 µg/mL) | MIC (Salmonella typhimurium): 4 µM (≈ 11.4 µg/mL) | MIC (Escherichia coli [7]): 2 µM (≈ 5.69 µg/mL) | MIC (Escherichia coli [8]): 4 µM (≈ 11.4 µg/mL) | MIC (Escherichia coli [9]): 2 µM (≈ 5.69 µg/mL) | MIC (Escherichia coli [10]): 2 µM (≈ 5.69 µg/mL)
